# Experimental data: patent publication US20090142411A1, “Composition and Device Comprising an Inorganic Component (Metal Compound) for Coagulation of Protein-Containing Fluids” (SMITH & NEPHEW, PLC, priority 2005, published 2009)
substance,measurement,setting,value
silver (I) oxide,dissolution in protein-containing fluid,,dissolve significantly
same,effect on rate of dissolution of gold (III) oxide,"protein-containing fluid, via silver hydroxide species formed",enhance the rate of dissolution of the gold (III) oxide
